Reference: ChEMBL document CHEMBL4428056 (J Med Chem, 2016)
pKd: −log10 of the molar value.

Amino acid sequences for entries named in this document (tags omitted).
UniProt P11762, whole entry: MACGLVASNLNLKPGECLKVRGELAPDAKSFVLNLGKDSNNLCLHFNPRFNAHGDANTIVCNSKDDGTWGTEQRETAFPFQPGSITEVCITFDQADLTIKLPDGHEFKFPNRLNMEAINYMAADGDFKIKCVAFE

How the values were obtained:
Galectin-9 = Galectin-9 (Homo sapiens, UniProt O00182); experiment: Competitive binding affinity to recombinant human galectin-9 C-terminal after 5 mins in presence of fluorescent probe 3,3'-dideoxy-3-[4-(fluorescein-5-yl-carbonylaminomethyl)-1H-1,2,3-triazol-1-yl]-3'-(3,5-dimethoxy-benzamido)-1,1'-sulfanediyl-di-beta-D-galactopyranoside by fluorescence polarization assay
Galectin-1 = Galectin-1 (Rattus norvegicus, UniProt P11762); experiment: Competitive binding affinity to rat galectin-1 after 5 mins in presence of fluorescent probe by fluorescence polarization assay

pKd (Galectin-9): 4.38
pKd (Galectin-1): 4.62
Compound: OC[C@H]1O[C@@H](S[C@@H]2O[C@H](CO)[C@H](O)[C@H](O)[C@H]2O)[C@H](O)[C@@H](O)[C@H]1O [THIODIGALACTOSIDE]
